How the values were obtained:
[1] = test system: MDA-MB-231 xenograft tumors; experiment: Metastasis: bone marrow colonies and lung metastases in tumor-bearing mice; format: in vivo, mouse; conditions: Mena^INV tumors (231-MENA or 231-MENA^INV), 12 weeks
Excerpt: Taxol treatment fails to reduce metastasis of Mena^INV-expressing xenografts. To investigate the consequences of Taxol treatment on metastasis, we counted the number of metastases in the lung and the number of colonies in cultured bone morrow from mice bearing Control, Mena or Mena^INV tumor for 12 weeks. The number of colonies in the bone marrow (FIG. 3A) or metastases in the lung (FIG. 3B) from Mena^INV tumors was not affected by treatment with Taxol. […] Thus taxol treatment fails to reduce the increased metastatic phenotype associated with Mena^INV expression.
Xenograft tumor generation and in vivo chemotherapy treatment. All animal experiments were approved by the MIT Division of Comparative Medicine. 2 million MDA-MB-231 cells expressing different MENA isoforms (in PBS and 20% collagen I) were injected into the 4th right mammary fat pad of six week-old female NOD-SCID mice (Taconic). When the tumors reached 1 cm in diameter, mice were treated every five days with either three doses of paclitaxel at 10 mg/kg in 1% DMSO, 3% PEG (MW 400), 1% Tween 80 in PBS by intra-peritoneal injection. In parallel, mice were treated with only in 1% DMSO, 3% PEG (MW 400), 1% Tween 80 in PBS as a vehicle control. One day after the last injection, tumors were measured and mice were use for intravital imaging and then sacrificed. Their tumors and lungs were fixed in 10% formalin overnight, their bone marrow were collected using PBS and cultured in DMEM with 10% fetal bovine serum. The number of tumor cell colonies in cultured bone morrow was counted 1 month after collection. The number of metastasis in each lobe of the lung were counted from lung H&E stained sections visualized by light microscopy and counted by two blinded individuals. Each tumor group contained 3-5 mice.
MENA and MENA^INV drive increased cell motility and metastasis during tumor progression. Therefore, whether MENA isoform expression impacts cell migration and dissemination after paclitaxel treatment was examined.

microtubules (MT) = experiment: MT length image analysis; format: cell-based, human; conditions: 231-Control or 231-MENA cells, 10 nM paclitaxel 24 hours
MDA-MB-231 cells = experiment: Cell viability assay (Prestoblue) in MDA-MB-231 cells expressing GFP, GFP-Mena or GFP-Mena^INV; conditions: 72 hours, varying doses of paclitaxel

Compound: CC(=O)O[C@H]1C(=O)[C@@]2(C)[C@H]([C@H](OC(=O)c3ccccc3)[C@]3(O)C[C@H](OC(=O)[C@H](O)[C@@H](NC(=O)c4ccccc4)c4ccccc4)C(C)=C1C3(C)C)[C@]1(OC(C)=O)CO[C@@H]1C[C@@H]2O [paclitaxel]
- number of colonies in cultured bone marrow [1]: Neither the number of bone marrow colonies
- number of metastases in the lung [1]: nor the number of lung metastases
- number of colonies in cultured bone marrow ([1]; listed as Taxol): not affected
- number of metastases in the lung ([1]; listed as Taxol): not affected
- MT length (microtubules (MT)): had no effect
- fraction of viable 231-MENA or 231-MENA^INV cells higher than fraction of viable 231-Control cells (MDA-MB-231 cells): at least 65%

Reference: patent publication US20170168056A1, “METHODS AND COMPOSITIONS FOR DETECTING AND MODULATING CANCER CELLS” (Massachusetts Institute of Technology, priority 2015, published 2017)
